From the Kinase Knowledgebase extract (Sharma et al. 2016)

By UniProt entry, the sequences of proteins in these tests, tags left out. Where a name states a change or a piece, a line headed by the entry shows the natural chain unless it says otherwise.
UniProt O00329: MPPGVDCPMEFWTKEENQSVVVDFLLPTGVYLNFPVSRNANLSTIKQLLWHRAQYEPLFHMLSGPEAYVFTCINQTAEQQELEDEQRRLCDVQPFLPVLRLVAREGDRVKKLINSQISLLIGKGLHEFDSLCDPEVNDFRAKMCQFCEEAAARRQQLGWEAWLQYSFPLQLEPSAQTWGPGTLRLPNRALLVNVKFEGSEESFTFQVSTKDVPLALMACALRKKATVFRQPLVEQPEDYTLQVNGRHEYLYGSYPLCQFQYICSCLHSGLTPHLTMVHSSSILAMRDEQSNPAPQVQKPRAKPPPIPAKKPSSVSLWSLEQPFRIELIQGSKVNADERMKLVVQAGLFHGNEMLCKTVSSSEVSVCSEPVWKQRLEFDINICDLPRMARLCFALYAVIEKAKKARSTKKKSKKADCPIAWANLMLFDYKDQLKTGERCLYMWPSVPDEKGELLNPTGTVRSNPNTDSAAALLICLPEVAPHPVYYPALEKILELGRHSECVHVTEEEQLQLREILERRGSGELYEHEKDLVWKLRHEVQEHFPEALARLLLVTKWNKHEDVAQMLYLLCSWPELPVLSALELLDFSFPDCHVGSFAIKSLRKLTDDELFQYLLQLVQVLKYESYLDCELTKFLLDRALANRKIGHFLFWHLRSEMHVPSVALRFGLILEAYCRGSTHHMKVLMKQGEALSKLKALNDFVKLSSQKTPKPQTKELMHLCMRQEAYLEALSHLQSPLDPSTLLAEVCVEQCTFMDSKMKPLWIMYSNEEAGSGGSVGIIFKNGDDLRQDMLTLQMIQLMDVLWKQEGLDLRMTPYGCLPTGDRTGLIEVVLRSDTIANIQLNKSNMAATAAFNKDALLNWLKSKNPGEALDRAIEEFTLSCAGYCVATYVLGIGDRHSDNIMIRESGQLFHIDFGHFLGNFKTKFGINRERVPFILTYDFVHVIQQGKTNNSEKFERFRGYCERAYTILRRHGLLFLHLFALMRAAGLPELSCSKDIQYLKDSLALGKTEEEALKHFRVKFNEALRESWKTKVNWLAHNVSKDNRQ

Target: PIK3CD (Human) (UniProt O00329)
Assay: Assessment of PI3KCD Kinase Activity

SMILES	IC50 [nM]
CC(=O)Nc1nc2ccc(-c3nn(Cc4cc5cccc(C)c5c(=O)n4-c4ccccc4C)c4ncnc(N)c34)cc2s1	< 100
Cc1ccccc1-n1c(Cn2nc(-c3cc(O)cc(F)c3)c3c(N)ncnc32)cc2cccc(C)c2c1=O	< 100
